This is an account of results in PubChem BioAssay AID435022 (Sanford-Burnham Center for Chemical Genomics, 2010).

The entries are a selection whose mix differs from that of the whole data set. Some of these compounds have results that are not shown, active ones among them. Active and inactive are the calls of the source. Cut-off read from the data, not from the text of the source: active = inhibition above about 35%; inactive = the rest.

The nature of this test: lowers stimulated NF-kB luciferase signal in 697 B cells – cell-based, luminescence, uHTS, B-cell NF-kB inhibitor project, primary screen (AID 435022). To be noted: 697 B-cell NF-kB luciferase reporter, PMA/ionomycin, 16 h; at 4 µM; stronger effect = higher value.
`Cc1ccc(C(=O)NCC2(N3CCCCC3)CCCCC2)cc1`: the inhibition is inactive: 4.26%.

Turning to `CC(C)N1C(=O)CC2(CCN(CCOC(=O)C(O)(c3ccccc3)c3ccccc3)CC2)C1=O`, the inhibition is inactive: -21.4%.

Consider `CCN(CC)CC(C)C(C)OC(=O)C(O)(c1ccccc1)c1ccccc1` (centres undefined), for which the inhibition was inactive: -7.26%.

As to `COc1cc(SC)ccc1C(=O)NCC1(N(C)C)CCCCC1`, the inhibition is inactive: -9.64%.

As to `CN1[C@@H]2CC[C@H]1CC(OC(=O)C(O)(c1ccccc1)c1ccccc1)C2` (some centres undefined), the inhibition is inactive: -17.9%.

For `O=C(NCC1(N2CCCCC2)CCCCC1)c1cc([N+](=O)[O-])ccc1Cl`, the inhibition is inactive: 17.1%.

`CCN1CCCC(OC(=O)C2(O)c3ccccc3C=Cc3ccccc32)C1` (centres undefined): the inhibition is inactive: -15.1%.

On to `Cc1cc(C(=O)NCC2(N3CCCCC3)CCCCC2)ccc1[N+](=O)[O-]`, for which the inhibition is inactive: -1.89%.

In the case of `O=C(NCC1(N2CCCCC2)CCCCC1)c1cccc(Br)c1`, the inhibition was inactive: 0.411%.

Regarding `COc1ccc(C(=O)NCC2(N(C)C)CCCCC2)cc1`, the inhibition is inactive: -7.44%.

As for `C=CCN1CCN(CCOC(=O)C(O)(c2ccccc2)c2ccccc2)CC1`, the inhibition was inactive: -5.07%.

Consider `O=C(NCC1(N2CCCCC2)CCCCC1)c1cc(F)c(F)cc1Cl`, for which the inhibition was inactive: 13.3%.

Consider `Cc1ccccc1C(=O)NCC1(N2CCCCC2)CCCCC1`, for which the inhibition was inactive: 6.35%.

As to `CN(C)c1ccc(C(=O)NCC2(N(C)C)CCCCC2)cc1`, the inhibition was inactive: -20%.

In the case of `CN(C)C1CCCC1OC(=O)C(O)(c1ccccc1)c1ccccc1` (centres undefined), the inhibition was inactive: 13%.

Take `O=C(NCC1(N2CCCCC2)CCCCC1)c1cccc(Cl)c1`: the inhibition was inactive: 5.27%.

As to `COc1cccc(C(=O)NCC2(N3CCCCC3)CCCCC2)c1`, the inhibition is inactive: 17%.

Regarding `COc1ccc(Cl)cc1C(=O)NCC1(N(C)C)CCCCC1`, the inhibition is inactive: 1.77%.

Consider `COc1cc(C(=O)NCC2(N(C)C)CCCCC2)c([N+](=O)[O-])cc1OC`, for which the inhibition was inactive: -2.87%.

For `CN(C)C1(CNC(=O)c2ccc(Br)cc2)CCCCC1`, the inhibition was inactive: -15.5%.

Regarding `CN(C)c1cccc(C(=O)NCC2(N(C)C)CCCCC2)c1`, the inhibition is inactive: -16.7%.

As for `CC(C)Oc1ccc(C(=O)NCC2(N(C)C)CCCCC2)cc1`, the inhibition is inactive: 3.03%.

For `COc1ccc(Br)c(C(=O)NCC2(N3CCCCC3)CCCCC2)c1`, the inhibition is inactive: 9.2%.

As to `O=C(OC1CN2CCC1CC2)C(CO)(c1ccccc1)c1ccccc1` (centres undefined), the inhibition is inactive: 8.19%.
